# AlphaSeq binding of Ab-14 light chain variants to a spike HR2 peptide

The target is the same throughout: PDVDLGDISGINAS, from the HR2 region of SARS-CoV-2 spike.

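This is the validation round: designs drawn from the data on random variants, tested in the same kind of assay. Their group label is 14L_GP_Gibbs (GP: Gaussian process model; Gibbs: Gibbs sampling; a sequence that several methods proposed may carry one label only). The assay is AlphaSeq: two haploid yeast populations carry antibody and antigen on their surface. Binding brings cells together so that they mate, and sequencing counts the barcode pairs among the diploids. A regression on co-assayed BCL2-family reference pairs converts the normalised counts of each replicate to an apparent Kd. Each pool was mated in six replicate cultures.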

Parent scFv Ab-14: VH joined to VL by three GGGGS repeats. Changes lie in the light chain CDRs alone.
VH: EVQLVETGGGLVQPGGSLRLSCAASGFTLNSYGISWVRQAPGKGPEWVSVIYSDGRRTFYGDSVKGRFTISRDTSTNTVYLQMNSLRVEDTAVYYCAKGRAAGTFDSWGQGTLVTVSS
VL: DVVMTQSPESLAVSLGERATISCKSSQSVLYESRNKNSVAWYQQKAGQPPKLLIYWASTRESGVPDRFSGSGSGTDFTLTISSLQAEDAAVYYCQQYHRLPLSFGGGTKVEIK

Sequences are complete VL domains.
Affinities are written as log10 Kd with Kd in nM; a lower number is a better binder.
An entry "ND" has no value in the source: the pair was not observed among the diploids in that replicate. This suggests poor binding but is not conclusive.
The range of this assay differs from that of the first round, and the authors advise against merging the two.
The authors' rule: three or more of the six replicates give a measured affinity, fewer mean a poor binder.
Nonspecific signal, from three strains lacking the peptide, appeared in 4% of pairings of all light chain designs, centred on 2.64 (5% of these signals below 1.59); values are not corrected for it. Also given: how often the same scFv was detected with the empty control strains, with their mean in brackets.

| # | VL | log10 Kd, replicates | empty controls |
|---|---|---|---|
| 1 | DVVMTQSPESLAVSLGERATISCKLQQFYEYESRWKNSVAWYQQKAGQPPKLLIYHASTRRSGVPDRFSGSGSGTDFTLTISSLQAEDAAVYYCQQYHRLPLSFGGGTKVEIK | ND 1.96 1.38 2.48 2.04 1.66 | 0/18 |
| 2 | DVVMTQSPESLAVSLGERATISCKFSYSVLYEDRNQNSVAWYQQKAGQPPKLLIYNASQREQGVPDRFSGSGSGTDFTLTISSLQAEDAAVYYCQQYHRLPLSFGGGTKVEIK | 0.70 0.76 0.48 0.30 0.87 0.59 | 0/18 |
| 3 | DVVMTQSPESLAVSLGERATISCKYSQSDEYESRNFNSVAWYQQKAGQPPKLLIYNASTRSMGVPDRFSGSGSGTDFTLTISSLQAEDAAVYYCQQYHRLPLSFGGGTKVEIK | 0.28 -0.01 0.31 0.36 0.34 0.16 | 0/18 |
| 4 | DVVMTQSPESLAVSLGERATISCKQQMSVMMGSRNKNSVAWYQQKAGQPPKLLIYSASKREAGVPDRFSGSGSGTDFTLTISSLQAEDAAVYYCQQYHRLPLSFGGGTKVEIK | 1.79 1.42 1.47 1.15 1.71 1.40 | 2/18 (2.39) |
| 5 | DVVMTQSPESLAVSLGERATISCKLDPSDLGESRNWNSVAWYQQKAGQPPKLLIYHASTREIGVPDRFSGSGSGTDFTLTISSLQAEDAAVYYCQQYHQLPLSFGGGTKVEIK | 0.20 -0.02 0.12 -0.16 0.07 0.13 | 2/18 (3.14) |
| 6 | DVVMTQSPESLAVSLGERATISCKVSNQADYEDRNKNSVAWYQQKAGQPPKLLIYSASTRESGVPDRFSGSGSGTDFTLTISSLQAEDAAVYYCQQYHRLPLSFGGGTKVEIK | 0.56 0.32 0.46 0.25 0.28 0.47 | 0/18 |
| 7 | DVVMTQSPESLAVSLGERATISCKLMFLGDYESRNKNSVAWYQQKAGQPPKLLIYQASQREQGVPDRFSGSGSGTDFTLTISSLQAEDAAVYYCQQYHRLPLSFGGGTKVEIK | 0.32 0.24 0.14 0.15 0.22 0.29 | 1/18 (3.67) |
| 8 | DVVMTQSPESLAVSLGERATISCVLQQSVLPESRNKNSVAWYQQKAGQPPKLLIYSASTRLPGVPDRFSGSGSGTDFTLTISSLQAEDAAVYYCQQYHRLPLSFGGGTKVEIK | 0.59 0.77 0.68 0.16 0.61 1.13 | 2/18 (2.64) |
| 9 | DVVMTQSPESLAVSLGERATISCHLYQSELYESRWKNSVAWYQQKAGQPPKLLIYNASTRLHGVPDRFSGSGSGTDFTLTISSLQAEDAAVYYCQQYHRLPLSFGGGTKVEIK | 1.34 1.26 1.79 1.58 1.41 1.22 | 2/18 (2.80) |
| 10 | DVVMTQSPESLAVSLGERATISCKISQAYLYESRNCNSVAWYQQKAGQPPKLLIYQANQRESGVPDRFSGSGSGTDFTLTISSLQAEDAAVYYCQQYHRLPLSFGGGTKVEIK | 0.22 -0.14 -0.26 -0.02 0.18 0.08 | 3/18 (2.98) |
| 11 | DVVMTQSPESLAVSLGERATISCKVMQSKEYESRQKNSVAWYQQKAGQPPKLLIYNASVRELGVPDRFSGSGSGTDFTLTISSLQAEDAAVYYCQQYHRLPLSFGGGTKVEIK | -0.06 -0.05 -0.12 -0.19 -0.06 -0.25 | 0/18 |
| 12 | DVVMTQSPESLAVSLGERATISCKWSMSVMGESVNKNSVAWYQQKAGQPPKLLIYNASTRESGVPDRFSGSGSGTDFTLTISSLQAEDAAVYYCQQYHRLPLSFGGGTKVEIK | -0.04 -0.01 -0.20 -0.35 -0.27 -0.03 | 3/18 (2.89) |
| 13 | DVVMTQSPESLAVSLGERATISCKLSMGHGYGSRNKNSVAWYQQKAGQPPKLLIYQASQREEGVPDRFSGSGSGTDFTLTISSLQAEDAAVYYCQQYHRLPLSFGGGTKVEIK | 0.49 0.44 0.23 0.18 0.57 0.28 | 0/18 |
| 14 | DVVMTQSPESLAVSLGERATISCKLSQLMLYESRNKNSVAWYQQKAGQPPKLLIYNASTRMSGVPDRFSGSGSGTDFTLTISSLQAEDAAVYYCQDYHRLPLSFGGGTKVEIK | 0.42 0.80 0.50 0.75 0.54 0.53 | 0/18 |
| 15 | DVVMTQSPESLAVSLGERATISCKLSEQALYESRNKNSVAWYQQKAGQPPKLLIYQASTREVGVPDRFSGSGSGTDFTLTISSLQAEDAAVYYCQQYHRLPLSFGGGTKVEIK | -0.26 -0.27 -0.53 -0.39 -0.50 -0.17 | 0/18 |
| 16 | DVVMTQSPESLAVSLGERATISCKHSWSVELESRLKNSVAWYQQKAGQPPKLLIYNASTREWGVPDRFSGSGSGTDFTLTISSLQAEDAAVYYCQQYHRLPLSFGGGTKVEIK | 2.16 1.99 1.38 1.66 1.66 1.17 | 2/18 (2.51) |
| 17 | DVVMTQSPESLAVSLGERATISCKLSPSVQYEDRNCNAVAWYQQKAGQPPKLLIYQASQRESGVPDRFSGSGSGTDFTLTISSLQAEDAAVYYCQQYHRLPLSFGGGTKVEIK | 0.30 0.41 0.32 0.10 0.19 0.55 | 1/18 (2.55) |
| 18 | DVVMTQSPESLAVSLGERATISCKLPQSEPYEERCFNSVAWYQQKAGQPPKLLIYNASTRESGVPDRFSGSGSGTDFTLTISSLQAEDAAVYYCQQYHRLPLSFGGGTKVEIK | 1.64 1.17 1.04 0.67 1.25 1.20 | 0/18 |
| 19 | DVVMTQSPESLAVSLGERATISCKFSMLHWYESRNKNSVAWYQQKAGQPPKLLIYEASTREQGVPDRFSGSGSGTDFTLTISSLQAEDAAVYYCQQYHRLPLSFGGGTKVEIK | 0.51 0.15 0.04 0.00 0.29 0.21 | 1/18 (1.89) |
| 20 | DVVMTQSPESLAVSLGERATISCKLSQSVEQLSRNKNSVAWYQQKAGQPPKLLIYNASQREVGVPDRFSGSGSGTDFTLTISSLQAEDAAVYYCQQYHRLPLSFGGGTKVEIK | -0.18 -0.37 -0.37 -0.31 -0.38 -0.17 | 1/18 (3.23) |
| 21 | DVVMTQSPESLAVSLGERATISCKVWPSELGEERNKMSVAWYQQKAGQPPKLLIYQASTRESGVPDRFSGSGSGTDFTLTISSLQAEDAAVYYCQQYHRLPLSFGGGTKVEIK | 0.73 0.44 0.42 0.27 0.40 0.54 | 1/18 (3.44) |
| 22 | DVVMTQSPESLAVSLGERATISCKLSQGQLYESRNKNNVAWYQQKAGQPPKLLIYSASTREMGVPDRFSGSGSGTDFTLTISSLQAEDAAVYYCQQYHRLPLSFGGGTKVEIK | 0.07 -0.03 -0.15 -0.44 0.02 -0.19 | 0/18 |
| 23 | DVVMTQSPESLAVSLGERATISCKMSQSWLGQSWNKNSVAWYQQKAGQPPKLLIYNASQREHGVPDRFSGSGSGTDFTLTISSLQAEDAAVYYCQQYHRLPLSFGGGTKVEIK | 1.23 0.66 0.70 0.81 0.76 0.81 | 2/18 (2.17) |

A selection of 2 entries from above:

VL,"log10 Kd, replicates",empty controls
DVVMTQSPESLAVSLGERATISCKLQQFYEYESRWKNSVAWYQQKAGQPPKLLIYHASTRRSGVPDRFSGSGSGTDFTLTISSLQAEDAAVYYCQQYHRLPLSFGGGTKVEIK,ND 1.96 1.38 2.48 2.04 1.66,0/18
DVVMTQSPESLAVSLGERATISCKHSWSVELESRLKNSVAWYQQKAGQPPKLLIYNASTREWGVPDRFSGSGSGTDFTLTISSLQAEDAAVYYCQQYHRLPLSFGGGTKVEIK,2.16 1.99 1.38 1.66 1.66 1.17,2/18 (2.51)

Values reported by Li et al. 2023, doi:10.1038/s41467-023-39022-2 (FLAb copy).